A word on the IC50: it is the point on the concentration scale where inhibition reaches its midpoint.

Chains of the proteins cited; added tags and fusions are not shown.
UniProt Q15858, whole entry, looked up: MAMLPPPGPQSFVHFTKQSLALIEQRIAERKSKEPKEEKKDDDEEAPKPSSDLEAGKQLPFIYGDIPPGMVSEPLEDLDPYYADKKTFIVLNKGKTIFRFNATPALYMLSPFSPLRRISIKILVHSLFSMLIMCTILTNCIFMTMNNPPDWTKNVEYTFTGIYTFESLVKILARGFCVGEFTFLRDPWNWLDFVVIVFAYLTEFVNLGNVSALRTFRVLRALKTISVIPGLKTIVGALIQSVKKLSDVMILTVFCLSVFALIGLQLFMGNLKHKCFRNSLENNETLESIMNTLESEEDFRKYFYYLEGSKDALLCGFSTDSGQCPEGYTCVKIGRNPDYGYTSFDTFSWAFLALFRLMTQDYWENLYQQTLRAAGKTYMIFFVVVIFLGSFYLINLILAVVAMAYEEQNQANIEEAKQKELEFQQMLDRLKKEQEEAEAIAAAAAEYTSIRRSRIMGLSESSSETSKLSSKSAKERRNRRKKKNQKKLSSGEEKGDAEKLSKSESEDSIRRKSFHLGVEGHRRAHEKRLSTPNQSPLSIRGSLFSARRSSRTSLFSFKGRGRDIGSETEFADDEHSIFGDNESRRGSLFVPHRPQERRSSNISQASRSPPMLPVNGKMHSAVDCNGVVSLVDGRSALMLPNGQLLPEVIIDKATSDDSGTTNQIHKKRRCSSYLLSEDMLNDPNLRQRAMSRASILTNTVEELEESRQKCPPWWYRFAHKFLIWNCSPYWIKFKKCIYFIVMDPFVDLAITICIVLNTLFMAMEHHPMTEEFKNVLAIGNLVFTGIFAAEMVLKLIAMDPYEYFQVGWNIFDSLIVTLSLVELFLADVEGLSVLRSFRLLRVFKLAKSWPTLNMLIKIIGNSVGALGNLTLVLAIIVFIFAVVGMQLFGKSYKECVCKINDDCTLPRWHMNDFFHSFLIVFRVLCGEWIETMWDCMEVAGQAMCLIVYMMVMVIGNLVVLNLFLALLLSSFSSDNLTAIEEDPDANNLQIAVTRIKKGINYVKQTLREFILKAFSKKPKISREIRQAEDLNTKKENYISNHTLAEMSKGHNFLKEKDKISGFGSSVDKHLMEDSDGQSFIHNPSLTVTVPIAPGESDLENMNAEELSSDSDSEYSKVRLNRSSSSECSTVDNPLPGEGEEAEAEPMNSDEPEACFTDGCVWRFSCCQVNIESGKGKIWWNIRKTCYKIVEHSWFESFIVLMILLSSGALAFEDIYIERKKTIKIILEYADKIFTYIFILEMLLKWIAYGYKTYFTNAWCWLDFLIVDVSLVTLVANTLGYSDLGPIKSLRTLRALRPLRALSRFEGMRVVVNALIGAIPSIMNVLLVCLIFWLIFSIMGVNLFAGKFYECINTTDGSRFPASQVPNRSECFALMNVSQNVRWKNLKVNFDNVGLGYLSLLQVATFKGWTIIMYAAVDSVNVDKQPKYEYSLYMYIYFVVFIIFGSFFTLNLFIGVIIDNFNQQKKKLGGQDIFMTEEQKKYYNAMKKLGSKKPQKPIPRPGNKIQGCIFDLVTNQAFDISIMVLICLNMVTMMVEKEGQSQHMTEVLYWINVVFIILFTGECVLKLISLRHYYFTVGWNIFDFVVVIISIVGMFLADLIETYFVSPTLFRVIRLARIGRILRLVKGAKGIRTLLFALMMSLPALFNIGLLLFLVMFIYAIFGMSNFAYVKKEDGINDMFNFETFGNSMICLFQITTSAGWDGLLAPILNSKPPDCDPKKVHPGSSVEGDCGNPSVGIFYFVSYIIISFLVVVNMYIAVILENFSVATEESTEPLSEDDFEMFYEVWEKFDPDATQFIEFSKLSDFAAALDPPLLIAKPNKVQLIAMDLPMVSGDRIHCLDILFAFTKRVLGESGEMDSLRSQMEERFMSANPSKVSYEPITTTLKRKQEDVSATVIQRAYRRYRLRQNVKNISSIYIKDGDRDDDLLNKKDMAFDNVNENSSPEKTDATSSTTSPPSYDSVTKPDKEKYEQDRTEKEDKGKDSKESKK

Results on one substance are retold here after US8952169B2 (Genentech, Inc., priority 2012, dated 2015).

The target of the experiment is hNav1.7 (Homo sapiens (Human), UniProt Q15858). Nature of the experiment: Tritiated aryl sulfonamide binding to membranes from cells expressing hNav1.7 and the β1 subunit (competitive binding). The settings on record: membranes with hNav1.7 and β1 subunit; [3H]compound displacement, 18 h, room temperature; read-out: NaV1.7 395 Memb Binding (IC50). On the procedure:
Tritiated Aryl Sulfonamide Binding to Membranes Isolated from Cells that Heterologously Express hNav1.7 and the β1 Subunit
Preparation of membranes containing recombinantly expressed sodium channels: Frozen recombinant cell pellets were thawed on ice and diluted to 4 times the cell pellet weight with ice cold 50 mM Tris HCl, pH 7.4 buffer. The cell suspensions were homogenized on ice using a motorized glass dounce homogeniser. Homogenates were further diluted 8.4 times with ice cold 50 mM Tris HCl, pH 7.4 buffer and then centrifuged at 200×g at 4° C. for 15 min. The supernatants were collected and centrifuged at 10000×g at 4° C. for 50 min. The pellets were then re-suspended in 100 mM NaCl, 20 mM Tris HCl, pH 7.4 buffer containing 1% v/v protease inhibitors (Calbiochem) and re-homogenized on ice. The homogenized membranes were then processed through a syringe equipped with a 26 gauge needle. Protein concentrations were determined by Bradford Assay and the membranes were stored at −80° C.
Radioligand Binding Studies: Saturation experiments. A representative compound of formula (I) was tritiated. […] Non-specific binding was determined in the presence of 1 μM unlabelled compound. […] [^3H]compound bound to filters was quantified by liquid scintillation counting.
Competitive binding experiments. […] Bound radioactivity was determined by liquid scintillation counting. […]

On to “N-(azetidin-1-ylsulfonyl)-5-cyclopropyl-4-((4,4-difluorocyclohexyl)-methoxy)-2-fluorobenzamide [Example 213]”, for which the IC50 came out at 1100 nM.
